The values below come from PubChem BioAssay AID1274 (Emory University Molecular Libraries Screening Center, 2008).

Protein sequences, listed by entry. Tags and fused reporters are not part of them.
UniProt P14598, whole entry: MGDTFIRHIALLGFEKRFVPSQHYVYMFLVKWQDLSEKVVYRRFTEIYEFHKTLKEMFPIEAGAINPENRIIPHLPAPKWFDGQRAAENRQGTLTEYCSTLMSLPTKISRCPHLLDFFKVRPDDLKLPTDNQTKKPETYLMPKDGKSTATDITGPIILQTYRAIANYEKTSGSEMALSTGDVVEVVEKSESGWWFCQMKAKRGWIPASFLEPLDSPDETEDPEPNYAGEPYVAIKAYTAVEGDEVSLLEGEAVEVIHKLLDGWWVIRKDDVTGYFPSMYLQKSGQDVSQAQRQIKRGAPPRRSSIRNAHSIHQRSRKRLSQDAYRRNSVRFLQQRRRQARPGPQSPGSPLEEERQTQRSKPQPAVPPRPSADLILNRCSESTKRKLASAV

Only a part is listed here, and it is no random draw. Some salts or complexes appear as unconnected parts, following the source record. Active and inactive are the calls of the source.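 Rule for the calls: active = inhibition above about 30% (limit read from the data); inactive = the rest.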

The test addresses Neutrophil cytosol factor 1 (Homo sapiens) (UniProt P14598). The test can be described thus: p47phox/p22phox peptide binding inhibitors, primary screen, biochemical, uHTS, NADPH oxidase regulatory subunit (AID 1274).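 Note: 0% = p47phox with labelled peptide and 100% = labelled peptide alone.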 Conditions: fluorescence polarization, 2 h, at 24.7 µM, hits give high values. A general note: Fluorescence polarisation rises when a labelled molecule tumbles more slowly, as on binding a larger partner.
Broadly, the inhibition is the change of the read-out against control, counted positive when it falls. In the case of `COc1ccccc1OP(C)(=O)Nc1ccc(Br)cc1` (stereo not given), the inhibition was inactive: 3.82%. Next, `COc1ccc(OP(C)(=O)Nc2ccccn2)cc1` (stereo not given): inactive: 6.3%. Regarding `CN(C)CCOC(=O)C(O)(c1ccccc1)C1CCCC1` (stereo not given), the inhibition was inactive: 2.43%. As for `O=[N+]([O-])c1cc([N+](=O)[O-])c(Nc2ccccn2)c([N+](=O)[O-])c1`, the inhibition was inactive: 2.36%.

`Cc1c(NP(C)(=O)Oc2ccc(C(C)C)cc2)c(=O)n(-c2ccccc2)n1C` (stereo not given): the inhibition was inactive: -5.33%. On to `COc1ccccc1OP(C)(=O)Nc1ccc(C)cc1C` (stereo not given), for which the inhibition was inactive: -4.72%. Next, `CP(=O)(Nc1ccccn1)Oc1ccccc1` (stereo not given): inactive: -6.46%. `CCc1ccc(OP(C)(=O)O)cc1`: the inhibition is inactive: -3.19%. `Cc1cc(C)cc(OP(C)(=O)Nc2cccc(C(F)(F)F)c2)c1` (stereo not given): the inhibition is inactive: -4.8%. In the case of `COc1ccccc1OP(C)(=O)Nc1ccc(C)c(C)c1` (stereo not given) it was inactive: 2.09%. Next, `COc1ccc(OP(C)(=O)Nc2ccccc2Br)cc1` (stereo not given): inactive: -12.2%; `Cc1nc2ccc3ccccc3c2o1.O=[N+]([O-])c1cc([N+](=O)[O-])c(O)c([N+](=O)[O-])c1`: inactive: -1.61%. As for `CP(=O)(OCCOc1ccccc1)OCCOc1ccccc1`, the inhibition was inactive: -4.5%.

As for `CP(=O)(Nc1ccc(Cl)cc1Cl)Oc1ccccc1` (stereo not given), the inhibition is inactive: -16.2%. Next, `CCOC(=O)c1ccc(NP(C)(=O)Oc2ccc(Cl)cc2)cc1` (stereo not given): inactive: -5.93%; `CP(=O)(OC12CC3CC(CC(C3)C1)C2)OC12CC3CC(CC(C3)C1)C2`: inactive: -4.59%. For `COc1ccc(OP(C)(=O)Nc2ccc(Br)cc2)cc1` (stereo not given), the inhibition is inactive: -9.25%. Next, `CCN(CC)CC(O)COC(=O)C(O)(c1ccccc1)C1CCCCC1` (stereo not given): inactive: 10.2%; `O=C(OCCCN1CCCC1)C(O)(c1ccccc1)C1CCCCC1` (stereo not given): inactive: 1.25%; `CCc1ccc(OP(C)(=O)Nc2cccnc2)cc1` (stereo not given): inactive: -1.65%. In the case of `CP(=O)(Oc1ccccc1)N1CCOC1=O` (stereo not given) it was inactive: -1.68%; in that of `CC(C)(C)c1ccc(OP(C)(=O)O)cc1`, inactive: 3.71%.

In the case of `COc1ccccc1OP(C)(=O)Nc1ccccc1Br` (stereo not given), the inhibition was inactive: 5.32%. In the case of `CP(=O)(Nc1ccc(Cl)cc1)Oc1ccc(F)cc1` (stereo not given) it was inactive: -13.9%. In the case of `CN(C)C(=O)c1c([N+](=O)[O-])cc([N+](=O)[O-])cc1[N+](=O)[O-]` it was inactive: -12.4%. Take `CP(=O)(Nc1ccc(SC(F)(F)F)cc1)Oc1ccc(F)cc1` (stereo not given): the inhibition was inactive: -1.57%. As for `CCOP(C)(=S)SCC(=O)NC(C)(CC)C(=O)O` (stereo not given), the inhibition is inactive: 8.03%. In the case of `CP(=O)(Nc1ccc2c(c1)OCCO2)Oc1ccccc1` (stereo not given) it was inactive: -3.57%. In the case of `Cc1ccccc1NP(C)(=O)Nc1ccccc1C` it was inactive: -8.23%. In the case of `COc1ccc(OP(C)(=O)Nc2cccc(Br)c2)cc1` (stereo not given) it was inactive: -9.58%; in that of `CN(C)CCOC(=O)C(O)(c1ccccc1)C1CCCCC1` (stereo not given), inactive: -16.6%; in that of `COc1ccc(NP(C)(=O)Oc2ccccc2OC)cc1` (stereo not given), inactive: 4.67%. Regarding `O=[N+]([O-])c1ccc(OP2(=O)COCCO2)cc1` (stereo not given), the inhibition is inactive: 0.13%. In the case of `O=[N+]([O-])c1cc([N+](=O)[O-])c(NCC2CCS(=O)(=O)C2)c([N+](=O)[O-])c1` (stereo not given) it was inactive: -7.17%; in that of `Cc1cc(-c2cccc3ccccc23)c(C)cn1.O=[N+]([O-])c1cc([N+](=O)[O-])c(O)c([N+](=O)[O-])c1`, inactive: -7.02%.

As to `CCOC(=O)c1ccc(NP(C)(=O)Oc2ccc(F)cc2)cc1` (stereo not given), the inhibition was inactive: 10.6%.

On to `COc1ccc(OP(C)(=O)Nc2ccc(SC(F)(F)F)cc2)cc1` (stereo not given), for which the inhibition was inactive: -5.77%. Next, `CCN(CC)CCCOC(=O)C(O)(c1ccccc1)C1CCCCC1` (stereo not given): inactive: 4.8%; `CP(=O)(Nc1ccccc1)Oc1ccc(F)cc1` (stereo not given): inactive: -9.4%. In the case of `CCCCCOc1ccc(NP(C)(=O)Oc2ccc(Cl)cc2Cl)cc1` (stereo not given) it was inactive: -4.59%. Next, `CP(=O)(Nc1ccccc1F)Oc1ccccc1` (stereo not given): inactive: -9.87%.

Take `CC(C)c1ccc(OP(C)(=O)Nc2ccc(SC(F)(F)F)cc2)cc1` (stereo not given): the inhibition was inactive: -5.2%. Next, `O=C(OC1CN2CCC1CC2)c1ccc([N+](=O)[O-])cc1` (stereo not given): inactive: 22.6%; `O=C(OCCN1CCN(CCOCc2ccccc2)CC1)C(O)(c1ccccc1)c1ccccc1`: inactive: -8.52%; `COc1ccc2c(c1O)-c1c(O)c(OC)cc3c1[C@H](C2)[N+](C)(C)CC3.O=[N+]([O-])c1cc([N+](=O)[O-])c([O-])c([N+](=O)[O-])c1[O-]`: inactive: 9.83%. Next, `COc1ccccc1OP(C)(=O)Nc1cccc(Br)c1` (stereo not given): inactive: 2.21%. Next, `CCOC(=O)c1ccc(NP(C)(=O)Oc2cc(C)cc(C)c2)cc1` (stereo not given): inactive: -1.33%; `Cc1cc(C)cc(OP(C)(=O)Nc2ccc(C)cc2C)c1` (stereo not given): inactive: -3.13%; `Cc1ccc(C)c(NP(C)(=O)Oc2ccccc2)c1` (stereo not given): inactive: -9.31%. For the compound `CP(=O)(Nc1cccc(Br)c1)Oc1ccccc1` (stereo not given), the inhibition is inactive: 4.52%. In the case of `Cc1cc(C)cc(OP(C)(=O)Nc2ccccn2)c1` (stereo not given) it was inactive: -3.24%. `O=C(O)c1cccc(Nc2c([N+](=O)[O-])cc([N+](=O)[O-])cc2[N+](=O)[O-])c1`: the inhibition was inactive: -14.4%.

On to `CC1=NCCc2c1[nH]c1ccccc21.O=[N+]([O-])c1cc([N+](=O)[O-])c(O)c([N+](=O)[O-])c1`, for which the inhibition was inactive: -2.54%.

`CCOC(=O)C(CC)C1=NC(C)(C)Cc2ccccc21.O=[N+]([O-])c1cc([N+](=O)[O-])c(O)c([N+](=O)[O-])c1` (stereo not given): the inhibition is inactive: -15.3%. In the case of `O=[N+]([O-])c1cc([N+](=O)[O-])c(Nc2nnnn2CCO)c([N+](=O)[O-])c1` it was inactive: -3.45%; in that of `COc1ccccc1OP(C)(=O)Nc1c(C)cccc1C` (stereo not given), inactive: -5.11%. In the case of `CN1CCCCC1COC(=O)C1(O)c2ccccc2CCc2ccccc21` (stereo not given) it was inactive: 10.4%; in that of `CP(=O)(Nc1ccc(SC(F)(F)F)cc1)Oc1ccccc1` (stereo not given), inactive: -0.6%; in that of `CCCOc1ccc(NP(C)(=O)Oc2ccc(Cl)cc2)cc1` (stereo not given), inactive: -0.09%. With `O=[N+]([O-])c1cc([N+](=O)[O-])c(-n2nnc3ccccc32)c([N+](=O)[O-])c1`, the inhibition is inactive: 1.59%.
